The record followed here is PubChem BioAssay AID651718 (The Scripps Research Institute Molecular Screening Center, 2012).

The list shows a part of the results, in another mix than the full data. Calls of active or inactive are those of the source. No stated cut-off is given here; in the data, active means inhibition above about 4.5%; inactive means the rest.

In the experiment the test system is Methionine sulfoxide reductase A (Bos taurus). In words: inhibition of methionine sulfoxide reductase A – biochemical, absorbance, bovine, HTS, primary screen (AID 651718).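 Further: 0% = vehicle wells with enzyme and 100% = reference inhibitor wells.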 The following applies: purified bovine MsrA, absorbance read-out; at 15.5 µM; stronger effect = higher value.
One may read the inhibition as the drop in the measured response relative to a control, in per cent. `O=[N+]([O-])c1cc([N+](=O)[O-])c(Nc2cccnc2)c([N+](=O)[O-])c1`: the inhibition is inactive: 3.89%.

For `O=[N+]([O-])c1ccc2c(c1)C=Nc1ccccc1O2`, the inhibition is inactive: 0.46%.

In the case of `CC(C)(C)c1ccc(OP(C)(=O)Nc2ccc(SC(F)(F)F)cc2)cc1` (configuration not stated), the inhibition is inactive: 1.6%. With `Cc1cccc(C)c1OP(C)(N)=O` (configuration not stated) the figure was inactive: 0.67%. With `COc1ccccc1OP(C)(=O)Nc1ccc(C)cc1` (configuration not stated), the inhibition was inactive: 0.16%.

For `Cc1ccc(NP(C)(=O)Oc2ccccc2)c(C)c1` (configuration not stated), the inhibition was inactive: -0.21%.

As for `CCOC(=O)c1ccc(NP(C)(=O)Oc2ccccc2)cc1` (configuration not stated), the inhibition is inactive: 0.76%.

Take `Cc1cc(C)cc(OP(C)(N)=O)c1` (configuration not stated): the inhibition was inactive: 0.88%.

`COc1ccccc1OP(C)(=O)Nc1cc(Cl)ccc1C` (configuration not stated): the inhibition was inactive: -0.04%. With `COc1ccc(OP(C)(=O)Nc2cccc(F)c2)cc1` (configuration not stated) the figure was inactive: -0.63%; with `CCN(CC)CCCOC(=O)C(O)(c1ccccc1)c1ccccc1`, inactive: -0.37%; with `COc1ccccc1-c1ccccn1.O=[N+]([O-])c1cc([N+](=O)[O-])c(O)c([N+](=O)[O-])c1`, inactive: 2.95%. Regarding `CP(=O)(Nc1ccc(SC(F)(F)F)cc1)Oc1ccc(Cl)cc1` (configuration not stated), the inhibition was inactive: 0.84%. In the case of `Cc1cccc(C)c1OP(C)(=O)Nc1ccc(SC(F)(F)F)cc1` (configuration not stated), the inhibition was inactive: 0.84%. The result for `CP(=O)(Oc1ccccc1)OC(c1ccccc1)C(F)(F)F` (configuration not stated) reads inactive: -0.4%; that for `CCc1ccc(OP(C)(=O)N2CCN(c3ccc([N+](=O)[O-])cc3)CC2)cc1` (configuration not stated), inactive: 2.56%. Regarding `CP(=O)(NC(=O)Nc1ccccc1)Oc1ccccc1` (configuration not stated), the inhibition was inactive: -0.59%. On to `Cc1cc(C)cc(OP(C)(=O)Nc2ccc(SC(F)(F)F)cc2)c1` (configuration not stated), for which the inhibition was inactive: 1.39%. With `O=[N+]([O-])c1cc([N+](=O)[O-])c(O)c([N+](=O)[O-])c1.c1ccc(Oc2ccncc2)cc1` the figure was inactive: 3.99%. With `CCOC(=O)c1ccc(NP(C)(=O)Oc2ccc(OC)cc2)cc1` (configuration not stated) the figure was inactive: -1.02%; with `CCOP(C)(=S)SCC(=O)NC(C)C(=O)O` (configuration not stated), inactive: -0.75%. As to `CP(=O)(Nc1ccccn1)Oc1ccc(Cl)cc1` (configuration not stated), the inhibition was inactive: 0.91%.

On to `CP(=S)(Nn1cnnc1)Oc1ccccc1` (configuration not stated), for which the inhibition was inactive: -1.51%. The result for `CP(=O)(Nc1ccccc1Br)Oc1ccccc1` (configuration not stated) reads inactive: 0.5%; that for `COc1ccccc1OP(C)(=O)Nc1ccccc1` (configuration not stated), inactive: -0.51%; that for `O=[N+]([O-])c1cc([N+](=O)[O-])c(Nc2nnnn2CCO)c([N+](=O)[O-])c1`, inactive: 0.39%.

Consider `CCOC(=O)C(CC)C1=NC(C)(C)Cc2ccccc21.O=[N+]([O-])c1cc([N+](=O)[O-])c(O)c([N+](=O)[O-])c1` (configuration not stated), for which the inhibition is inactive: 2.66%. For the compound `CN1CCCCC1COC(=O)C1(O)c2ccccc2CCc2ccccc21` (configuration not stated), the inhibition is inactive: 0.44%. `COc1ccccc1OP(C)(=O)Nc1c(C)cccc1C` (configuration not stated): the inhibition was inactive: -0.74%. With `COc1ccc(-c2ccccn2)cc1.O=[N+]([O-])c1cc([N+](=O)[O-])c(O)c([N+](=O)[O-])c1` the figure was inactive: 3.05%; with `CP(=O)(Nc1ccc(SC(F)(F)F)cc1)Oc1ccccc1` (configuration not stated), inactive: -0.75%. With `CCCOc1ccc(NP(C)(=O)Oc2ccc(Cl)cc2)cc1` (configuration not stated) the figure was inactive: 0.47%; with `O=[N+]([O-])c1cc([N+](=O)[O-])c(-n2nnc3ccccc32)c([N+](=O)[O-])c1`, inactive: 3.8%; with `CN(Cc1cccnc1)C(=O)COc1ccc(Cl)c(Cl)c1.O=[N+]([O-])c1cc([N+](=O)[O-])c(O)c([N+](=O)[O-])c1`, active: 4.98%. For the compound `O=[N+]([O-])c1cc([N+](=O)[O-])c(-c2cnn(-c3ccccc3)c2)c([N+](=O)[O-])c1`, the inhibition is inactive: 2.04%. With `Cc1nc2ccc3ccccc3c2s1.O=[N+]([O-])c1cc([N+](=O)[O-])c(O)c([N+](=O)[O-])c1` the figure was active: 6.83%. Regarding `COc1ccccc1OP(C)(=O)Nc1cccc(Br)c1` (configuration not stated), the inhibition is inactive: 0.97%.

With `CCOC(=O)c1ccc(NP(C)(=O)Oc2cc(C)cc(C)c2)cc1` (configuration not stated), the inhibition is inactive: -0.36%. On to `Cc1cc(C)cc(OP(C)(=O)Nc2ccc(C)cc2C)c1` (configuration not stated), for which the inhibition was inactive: 0.08%. In the case of `Cc1ccc(C)c(NP(C)(=O)Oc2ccccc2)c1` (configuration not stated), the inhibition was inactive: 0.56%.

With `CP(=O)(Nc1cccc(Br)c1)Oc1ccccc1` (configuration not stated), the inhibition was inactive: 0.09%. Take `Cc1cc(C)cc(OP(C)(=O)Nc2ccccn2)c1` (configuration not stated): the inhibition was inactive: -0.62%. `O=C(O)c1cccc(Nc2c([N+](=O)[O-])cc([N+](=O)[O-])cc2[N+](=O)[O-])c1`: the inhibition is inactive: 3.11%.

`CC1=NCCc2c1[nH]c1ccccc21.O=[N+]([O-])c1cc([N+](=O)[O-])c(O)c([N+](=O)[O-])c1`: the inhibition was inactive: 3.16%. With `CCN(CC)CCCNc1ccccc1[N+](=O)[O-].O=[N+]([O-])c1cc([N+](=O)[O-])c(O)c([N+](=O)[O-])c1` the figure was inactive: 2.04%. With `CCOC(=O)c1ccc(NP(C)(=O)Oc2ccc(F)cc2)cc1` (configuration not stated) the figure was inactive: 1.57%; with `COc1ccc(OP(C)(=O)Nc2ccc(SC(F)(F)F)cc2)cc1` (configuration not stated), inactive: -0.26%; with `Cc1c([N+](=O)[O-])cc([N+](=O)[O-])c(Br)c1[N+](=O)[O-]`, inactive: 3.67%. With `CCN(CC)CCCOC(=O)C(O)(c1ccccc1)C1CCCCC1` (configuration not stated) the figure was inactive: -0.13%. `CP(=O)(Nc1ccccc1)Oc1ccc(F)cc1` (configuration not stated): the inhibition is inactive: -1.03%. With `O=[N+]([O-])c1cc([N+](=O)[O-])c(OC2CCCCC2O)c([N+](=O)[O-])c1` (configuration not stated) the figure was active: 4.86%. `CCCCCOc1ccc(NP(C)(=O)Oc2ccc(Cl)cc2Cl)cc1` (configuration not stated): the inhibition is inactive: 0.84%. Consider `O=[N+]([O-])c1cc([N+](=O)[O-])c(Nc2ccc(Cl)cc2)c([N+](=O)[O-])c1`, for which the inhibition is inactive: 1.14%. Take `CP(=O)(Nc1ccccc1F)Oc1ccccc1` (configuration not stated): the inhibition was inactive: 0.86%. The result for `CC(C)c1ccc(OP(C)(=O)Nc2ccc(SC(F)(F)F)cc2)cc1` (configuration not stated) reads inactive: -1.66%; that for `O=C(OC1CN2CCC1CC2)c1ccc([N+](=O)[O-])cc1` (configuration not stated), inactive: 0.87%. The result for `O=C(OCCN1CCN(CCOCc2ccccc2)CC1)C(O)(c1ccccc1)c1ccccc1` reads inactive: -0.68%.
